Ab-14 light chain CDR variants: yeast mating affinities

Source: Li et al. 2023 (doi:10.1038/s41467-023-39022-2), MIT Lincoln Laboratory and A-Alpha Bio; data file from the FLAb repository.

Target: peptide PDVDLGDISGINAS, taken from heptad repeat 2 (HR2) of SARS-CoV-2 spike.

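The parent was found by panning a naive human phage display library on the peptide. Designed CDR sequences, proposed from the first random library and measured here. Their group label is 14L_Ctrl (Ctrl: baseline library sampled from a position-specific scoring matrix, with some repeated check sequences). The scFvs were displayed on barcoded MATa yeast, the peptide on MATalpha yeast. The frequency of each diploid, read from paired DNA barcodes, reflects how well the two displayed proteins bind. The ratio of observed to expected reads was calibrated, replicate by replicate, on BCL2-family standards whose Kd was known from biolayer interferometry. There are six technical replicates.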

Ab-14 is the parent antibody, in scFv form: VH, then the linker GGGGSGGGGSGGGGS, then VL. The heavy chain is unchanged in all variants.
VH: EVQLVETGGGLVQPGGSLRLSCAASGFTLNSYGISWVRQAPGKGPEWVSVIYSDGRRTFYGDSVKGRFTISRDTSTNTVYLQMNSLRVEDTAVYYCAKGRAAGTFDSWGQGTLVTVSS
VL: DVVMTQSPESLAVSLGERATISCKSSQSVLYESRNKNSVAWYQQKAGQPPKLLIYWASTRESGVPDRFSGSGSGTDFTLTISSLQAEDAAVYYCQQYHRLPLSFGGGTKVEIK

Each variant is given by its three light chain CDRs, as the data file delimits them; those of the parent are KSSQSVLYESRNKNSVA, WASTRES, QQYHRLPLS. Scale: log10 of Kd in nM, estimated from mating counts; low values are strong binders. "nd" means that the variant was in the library but no mating with the target was seen in that replicate; the authors take this as a sign of poor binding, and no number exists. A sequence measured in both rounds can read differently, since the two assays cover different ranges. Nonspecific signal, from three strains lacking the peptide, appeared in 4% of pairings of all light chain designs, centred on 2.64 (5% of these signals below 1.59); values are not corrected for it. Also given: how often the same scFv was detected with the empty control strains. In the paper, a design with two or fewer of six values counts as a poor binder.

For KSSLSWLYESYNSNSVA | EASTRES | QQYHRLPLD, the assay gave 2.04, 2.35, 2.81, 3.12, 1.75, 2.82 (controls 1 of 18).
For HSSQSVLYESRNKNSVA | QASTRES | QQYHRLPLS, the assay gave 0.85, 1.43, 0.86, 0.82, 0.82, 0.97 (controls 0 of 18).
For KSSQSVLYENRNKNSVA | SASTRES | QQAHRLPLS, the assay gave 0.95, 0.87, 0.93, 1.10, 0.64, 1.11 (controls 1 of 18).
For KCSQSVLYESRNKNSVA | HASTRGS | QQYHRLPLS, the assay gave -0.60, -0.61, -0.54, -1.76, 0.37, -0.87 (controls 0 of 18).
For KSSQSVLYESRNKNSVA | WASTRES | QQYSRLPLS, the assay gave 1.63, 2.67, 1.66, 1.82, 3.61, 2.32 (controls 1 of 18).
For KSSQSVDYESTNKNSVA | NASTRES | QQYHGLPLS, the assay gave 0.57, 1.91, 1.01, nd, 2.25, 1.20 (controls 0 of 18).
For KVSQEMLTEFRNKVAVA | HASTRES | QQIHRLPLS, the assay gave 1.11, 0.36, 0.49, 0.93, 0.76, 1.15 (controls 1 of 18).
For KSSQKVLGESRNKNSVA | WASTRES | QQYNRLPLS, the assay gave 2.39, 2.84, 2.10, 2.06, 3.28, 1.25 (controls 2 of 18).
For MSSQAVLNESRNKNSVA | WASTREA | QQYHRLPLS, the assay gave nd, nd, nd, nd, nd, nd (controls 0 of 18).
For KSSQSVLYYSRNKNSVA | EASTRES | QQYHRLPLS, the assay gave 1.02, 1.42, 1.32, 1.29, 1.10, 1.03 (controls 0 of 18).
For KSGQSVLLESRNKNSVA | GASIRFS | QQYHRLPLS, the assay gave 1.10, 1.10, 0.89, 0.97, 1.13, 0.68 (controls 0 of 18).
For KVSESVLYESRNKNSVA | NASTRES | QEYHRLPLS, the assay gave 0.35, 0.17, 0.35, -0.17, 0.22, 0.24 (controls 0 of 18).
For KSSQSVLYQSKNKNSVA | WASTRES | QQYMRLPLS, the assay gave 1.52, 2.26, 2.11, 1.64, 1.96, 2.37 (controls 0 of 18).
For KSSQSVLYESQNKNSVA | WASTRES | YQYHRLPLS, the assay gave nd, nd, nd, nd, nd, nd (controls 0 of 18).
For KDSQSVLYEKRLCNSVA | WASTRES | QQGHRLPLS, the assay gave nd, nd, nd, nd, nd, nd (controls 0 of 18).
For LFSQSVLYESRNKNSVA | SASTRES | QQYHMLPLS, the assay gave 0.18, 0.05, 0.01, -0.16, -0.06, 0.33 (controls 2 of 18).
For KLSQAVDYESRNKNSVA | SASTRES | QQYHRLPLS, the assay gave 0.99, 0.33, 0.46, 0.27, 0.61, 0.64 (controls 0 of 18).
For KSCQSVLYESRNPNSVA | WASTRES | QQYHRLPLW, the assay gave nd, nd, 2.01, nd, 1.94, nd (controls 0 of 18).
For KSSQRVRYESRNVNSVA | WGSTRMS | QQYSRLPLS, the assay gave nd, nd, 2.88, nd, 2.99, 2.70 (controls 1 of 18).
For KSFQSVLYESCNKNSVA | WASTRES | QQYHRLPLS, the assay gave nd, 2.01, nd, nd, 1.84, 1.39 (controls 0 of 18).
For KSCQAVNYESRNKNSVA | WASTRES | QQYHRLPLS, the assay gave 0.79, 1.11, 0.69, 0.38, 0.65, 1.00 (controls 1 of 18).
For KSSQSVLYESLNKNSVA | WASTRES | QQYHRLPLS, the assay gave 1.75, 2.00, 0.88, 1.07, 2.94, 3.48 (controls 0 of 18).
For KSSESVLMESRNKNSVA | WASTRES | QQVHRLPLS, the assay gave nd, 4.53, 1.94, 2.42, 1.99, 2.30 (controls 0 of 18).
For KSSQSVLSESRNKNSVA | DASTRES | QQYHRLPLS, the assay gave 0.15, 0.06, -0.11, 0.09, 0.01, 0.09 (controls 3 of 18).
For KSSQSVLYESRNKNSVA | EKSTRES | QQYHRLPLS, the assay gave 0.70, 0.56, 0.43, 0.18, 0.23, 0.61 (controls 0 of 18).
For KSSQSVLYESRNKNSVA | WASTRWS | QQYHRLPLS, the assay gave 0.94, 0.49, 0.26, 2.03, 1.21, 0.27 (controls 0 of 18).
For KSSQSVLYESLNKNSIA | WASTRES | QQYHWLPLS, the assay gave nd, 2.39, 2.61, 3.27, 2.42, 3.88 (controls 2 of 18).
For KMSQSALYMSRNKNSVA | WASTRES | QQCHKLPLS, the assay gave 1.33, 0.76, 1.17, 2.12, 1.42, 1.29 (controls 0 of 18).
For KSSGSVLYESRNKNSVA | QAYTRFS | QQYHRLPLS, the assay gave nd, nd, nd, 1.59, 0.58, 1.64 (controls 1 of 18).
For KYSQSVLYESRNKNSVA | AASTRVS | QQYHRLPLS, the assay gave 0.03, 0.03, -0.04, 0.04, -0.09, 0.40 (controls 0 of 18).
For KSSVSVLYESRNSNSVA | WASTREA | QQYHRLPLY, the assay gave 1.35, 0.36, 0.66, 1.10, 1.08, 0.53 (controls 0 of 18).
For KSSQSVWYESTNKNSVA | WASTRES | QQYHRLPLS, the assay gave 1.41, 1.49, 1.39, 1.44, 1.73, 1.52 (controls 2 of 18).
For KSSQSVLYESRNKNSVA | KASRRES | QQYHRLPLS, the assay gave nd, 3.05, 2.16, 1.96, 2.22, nd (controls 2 of 18).
For KSSQSVLYEQRNFNSVA | WASTRES | QKYHRLPLS, the assay gave 1.26, 4.05, nd, nd, nd, nd (controls 1 of 18).
For KSSQSVLYESRDKNSVA | WASTRER | QQYHRLPLS, the assay gave 1.50, 1.17, 1.24, 2.09, 1.50, 1.57 (controls 0 of 18).
For NSSQSVLEESRNKNSVA | QAETRSS | QQYHRLPLS, the assay gave 0.49, 0.54, 0.55, 0.66, 0.56, 0.64 (controls 2 of 18).
For KSSQSVLYEWSNKNSVA | WASTRES | QQYHRLPLS, the assay gave 0.44, 2.00, 0.31, 1.13, 0.49, 0.50 (controls 0 of 18).
For KSSGSVLYESRNLNDVA | WASTRHS | QQYHRLPLS, the assay gave nd, nd, nd, nd, nd, nd (controls 1 of 18).
For MVSQSVLYESRNNNSVA | WASTRED | QQYMRLPLP, the assay gave nd, nd, nd, nd, nd, nd (controls 0 of 18).